We go through three compounds from ChEMBL document CHEMBL5137121, “Spiroisoxazoline Inhibitors of Acetylcholinesterase from Pseudoceratina verrucosa. Quantitative Chiroptical Analysis of Configurational Heterogeneity, and Total Synthesis of (±)-Methyl Purpuroceratate C” (J Nat Prod, 2022).

The chains behind the UniProt entries cited, without tags or fusion partners. Residues count along the entry.
UniProt P81908, whole entry, looked up: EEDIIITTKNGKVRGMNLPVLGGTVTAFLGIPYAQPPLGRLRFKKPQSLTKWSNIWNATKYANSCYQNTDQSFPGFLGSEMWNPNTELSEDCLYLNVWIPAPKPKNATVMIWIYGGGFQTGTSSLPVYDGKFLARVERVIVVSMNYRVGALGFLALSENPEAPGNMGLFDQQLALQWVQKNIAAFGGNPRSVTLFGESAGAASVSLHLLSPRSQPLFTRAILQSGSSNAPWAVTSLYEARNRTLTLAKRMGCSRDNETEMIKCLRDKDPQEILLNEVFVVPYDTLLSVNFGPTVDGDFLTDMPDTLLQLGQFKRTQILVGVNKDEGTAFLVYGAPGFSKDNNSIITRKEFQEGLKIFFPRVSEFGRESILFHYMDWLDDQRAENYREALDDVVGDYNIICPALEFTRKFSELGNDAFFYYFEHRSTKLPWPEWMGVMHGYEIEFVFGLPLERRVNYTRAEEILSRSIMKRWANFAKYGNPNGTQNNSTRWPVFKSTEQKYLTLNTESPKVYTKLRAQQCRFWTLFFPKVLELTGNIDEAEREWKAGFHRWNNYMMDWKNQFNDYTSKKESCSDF
UniProt O42275, 24-633 limits assumed: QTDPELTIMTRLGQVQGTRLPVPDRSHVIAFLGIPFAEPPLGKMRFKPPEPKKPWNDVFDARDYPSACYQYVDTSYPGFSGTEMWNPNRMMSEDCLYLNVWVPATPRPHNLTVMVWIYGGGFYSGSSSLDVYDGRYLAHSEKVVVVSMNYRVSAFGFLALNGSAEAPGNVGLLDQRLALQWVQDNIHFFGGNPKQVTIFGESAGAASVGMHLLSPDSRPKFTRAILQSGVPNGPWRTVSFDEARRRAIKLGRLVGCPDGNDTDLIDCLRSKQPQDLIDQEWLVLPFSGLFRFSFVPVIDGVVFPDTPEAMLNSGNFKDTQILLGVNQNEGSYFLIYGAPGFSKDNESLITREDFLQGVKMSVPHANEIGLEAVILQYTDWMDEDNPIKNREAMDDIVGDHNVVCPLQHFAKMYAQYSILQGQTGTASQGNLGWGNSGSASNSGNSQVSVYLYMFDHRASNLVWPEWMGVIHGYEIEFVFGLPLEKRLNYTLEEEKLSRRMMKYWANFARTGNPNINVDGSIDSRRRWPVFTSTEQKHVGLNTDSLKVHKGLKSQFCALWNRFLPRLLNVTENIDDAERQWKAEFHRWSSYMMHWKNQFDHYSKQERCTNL

One experiment deals with Cholinesterase (Equus caballus, UniProt P81908).
In a further experiment the target is Acetylcholinesterase (Electrophorus electricus, UniProt O42275).

One may read the IC50 as the midpoint of a concentration-inhibition curve.

Bounds are passed on as bounds.

Turning to `COc1c(Br)cc(C/C(=N\O)C(=O)NCCc2nc(N)[nH]c2C(O)(Cc2cc(Br)c(OC)c(Br)c2)C(=O)NCCc2cnc(N)[nH]2)cc1Br` (stereo unspecified), the results for the concentration for half-maximal inhibition (IC50) at Cholinesterase and on Acetylcholinesterase were 14 µM and > 100 µM, respectively.
On the same counts, the results for `COc1ccc(C/C(=N\O)C(=O)NCCc2cc(Br)c(OCCCN(C)C)c(Br)c2)cc1Br` are 1.03 µM and 0.46 µM.
Regarding `CNCCCOc1c(Br)cc(CCNC(=O)/C(Cc2ccc(OC)c(Br)c2)=N/O)cc1Br`, the concentration for half-maximal inhibition (IC50) against Cholinesterase is 2.71 µM; at Acetylcholinesterase it was 5.4 µM.
